Laboratory results: patent publication US12329823B2 (The Scripps Research Institute, priority 2021, dated 2025)

Protein sequences, listed by entry. Tags and fused reporters are not part of them. Residues count along the entry.
UniProt F8V479, 24-463: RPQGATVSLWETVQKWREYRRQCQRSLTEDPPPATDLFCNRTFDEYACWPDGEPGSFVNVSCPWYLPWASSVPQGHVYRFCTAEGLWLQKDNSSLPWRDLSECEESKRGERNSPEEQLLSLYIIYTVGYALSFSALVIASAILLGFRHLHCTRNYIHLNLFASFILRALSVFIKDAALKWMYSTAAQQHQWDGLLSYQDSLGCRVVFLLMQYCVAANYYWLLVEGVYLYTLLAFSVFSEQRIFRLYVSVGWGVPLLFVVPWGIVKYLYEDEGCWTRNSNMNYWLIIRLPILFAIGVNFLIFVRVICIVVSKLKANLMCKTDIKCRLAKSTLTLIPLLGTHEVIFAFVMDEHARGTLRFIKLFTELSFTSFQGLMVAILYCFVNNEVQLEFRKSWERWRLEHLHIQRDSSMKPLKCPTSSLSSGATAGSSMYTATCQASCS

How the values were obtained:
mouse GLP1R = molecular target: T1, mouse GLP1R (Mus musculus, UniProt O35659); experiment: In vitro potency, mouse GLP1R activation (receptor-mediated cAMP synthesis); assay type: cell-based; details: read-out: In Vitro Potency GLP1R EC50, Mouse; Table 12
T1 sequence (O35659 22-463): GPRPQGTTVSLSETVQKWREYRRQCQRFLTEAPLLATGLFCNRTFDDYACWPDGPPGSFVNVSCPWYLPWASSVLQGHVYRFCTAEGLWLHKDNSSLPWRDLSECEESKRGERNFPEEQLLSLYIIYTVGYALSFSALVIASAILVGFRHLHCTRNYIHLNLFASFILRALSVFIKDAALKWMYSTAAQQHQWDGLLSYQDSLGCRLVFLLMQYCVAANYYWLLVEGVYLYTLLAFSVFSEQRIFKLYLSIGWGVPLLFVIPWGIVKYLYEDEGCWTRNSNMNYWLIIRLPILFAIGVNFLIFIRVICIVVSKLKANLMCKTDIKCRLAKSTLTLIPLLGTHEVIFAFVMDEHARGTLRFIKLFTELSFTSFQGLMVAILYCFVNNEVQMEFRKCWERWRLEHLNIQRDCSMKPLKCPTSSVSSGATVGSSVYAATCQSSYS
Procedure: (§1) GLP-1R-CRE or HEK293-GIPR-CRE cells were seeded in 384-well plates at a density of 5000 cells per well and cultured for 18 h in DMEM with 10% FBS at 37° C. and 5% CO2. Cells were treated with peptides in a dose dependent manner for 24 h, and receptor activation was reported by luminescence intensities, using One-Glo (Promega, WI) luciferase reagent following manufacturer's instruction. The EC50 of each peptide was determined using GraphPad Prism 6 software (GraphPad, San Diego, CA). Results are depicted in FIGS. 6A-6B, FIGS. 7A-7B, FIGS. 8A-8B, FIGS. 9A-9B, and Tables 7-12. Measurements of peptide conjugate potency were expressed as half maximal effective concentration (EC50) values.

[1] = semaglutide; cited from earlier work
dog GLP1R = molecular target: T2, dog GLP1R (Canis lupus familiaris, UniProt A0A8I3NUR9); experiment: In vitro potency, dog GLP1R activation (receptor-mediated cAMP synthesis); assay type: cell-based; details: read-out: In Vitro Potency GLP1R EC50, Dog; Table 12
T2 sequence (A0A8I3NUR9 1-464): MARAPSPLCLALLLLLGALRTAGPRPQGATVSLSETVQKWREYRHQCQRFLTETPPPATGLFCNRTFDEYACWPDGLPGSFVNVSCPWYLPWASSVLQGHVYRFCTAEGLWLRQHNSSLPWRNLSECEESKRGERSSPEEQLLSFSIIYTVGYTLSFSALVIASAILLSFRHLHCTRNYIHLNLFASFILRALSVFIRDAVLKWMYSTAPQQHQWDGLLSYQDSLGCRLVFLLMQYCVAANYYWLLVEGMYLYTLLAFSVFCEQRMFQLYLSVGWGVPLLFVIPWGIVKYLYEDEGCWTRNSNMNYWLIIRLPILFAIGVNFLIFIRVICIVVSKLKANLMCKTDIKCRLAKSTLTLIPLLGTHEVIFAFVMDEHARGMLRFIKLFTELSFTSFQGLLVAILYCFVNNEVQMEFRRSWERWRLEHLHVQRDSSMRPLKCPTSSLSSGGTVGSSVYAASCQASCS
Procedure: as §1

cynomolgous monkey GLP1R = cynomolgous monkey GLP1R (Macaca fascicularis, UniProt F8V479); experiment: In vitro potency, cynomolgous monkey GLP1R activation (receptor-mediated cAMP synthesis); assay type: cell-based; details: read-out: In Vitro Potency GLP1R EC50, Cyno; Table 12
Procedure: as §1

human GIPR = molecular target: T3, human GIPR (Homo sapiens, UniProt P48546); experiment: In vitro receptor activation reporter assay (CRE-Luc, HEK293-GIPR-CRE cells; receptor-mediated cAMP synthesis); assay type: cell-based; details: read-out: In Vitro Potency GIPR EC50, No Serum, Table 11
T3 construct: expressed in transfected cells; host or cells: HEK293 (CRE-HEK293, HEK293-GIPR-CRE)
T3 sequence (P48546 22-466): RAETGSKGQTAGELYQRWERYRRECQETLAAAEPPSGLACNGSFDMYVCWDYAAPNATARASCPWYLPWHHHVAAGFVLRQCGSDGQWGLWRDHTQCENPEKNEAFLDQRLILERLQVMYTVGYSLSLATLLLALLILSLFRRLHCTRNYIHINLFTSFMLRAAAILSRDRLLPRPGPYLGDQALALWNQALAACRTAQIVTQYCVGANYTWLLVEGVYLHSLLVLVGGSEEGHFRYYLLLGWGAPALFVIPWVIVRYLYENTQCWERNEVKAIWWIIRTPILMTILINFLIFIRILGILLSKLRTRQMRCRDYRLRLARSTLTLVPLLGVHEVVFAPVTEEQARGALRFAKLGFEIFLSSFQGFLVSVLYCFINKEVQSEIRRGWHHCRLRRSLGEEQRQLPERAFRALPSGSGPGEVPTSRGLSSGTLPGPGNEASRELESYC

dog GIPR = molecular target: T4, dog GIPR (Canis lupus familiaris, UniProt A0A8I3MPG1); experiment: In vitro potency, dog GIPR activation (receptor-mediated cAMP synthesis); assay type: cell-based; details: read-out: In Vitro Potency GIPR EC50, Dog; Table 12
T4 sequence (A0A8I3MPG1 24-449): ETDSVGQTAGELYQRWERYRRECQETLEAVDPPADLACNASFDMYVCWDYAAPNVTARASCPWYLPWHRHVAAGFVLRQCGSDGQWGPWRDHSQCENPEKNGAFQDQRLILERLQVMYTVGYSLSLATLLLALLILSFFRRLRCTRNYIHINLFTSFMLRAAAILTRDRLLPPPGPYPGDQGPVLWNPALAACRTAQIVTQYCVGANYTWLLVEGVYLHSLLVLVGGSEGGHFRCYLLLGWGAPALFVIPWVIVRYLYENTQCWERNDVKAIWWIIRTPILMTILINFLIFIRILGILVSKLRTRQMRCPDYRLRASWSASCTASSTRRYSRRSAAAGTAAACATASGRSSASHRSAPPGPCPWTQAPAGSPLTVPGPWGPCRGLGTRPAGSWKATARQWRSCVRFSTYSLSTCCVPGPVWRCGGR
Procedure: as §1

Semaglutide [reference compound]
EC50 (mouse GLP1R): 0.1 nM | rodent half-life [1]: ~8 h | EC50 (dog GLP1R): 0.67 nM | EC50 (cynomolgous monkey GLP1R): 0.13 nM

Tirzepatide [reference compound]
EC50 (human GIPR): 0.006 nM | EC50 (dog GIPR): 0.1 nM
